Test results: patent US20220194911A1, “NOVEL COMPOUND FOR INHIBITING HISTONE ACETYLTRANSFERASE P300 AND ANTIFIBROTIC COMPOSITION COMPRISING SAME” (REFURE LIFE SCIENCE INC., priority 2019, published 2022)

By UniProt entry, the sequences of proteins in these tests, tags left out.
UniProt Q09472, whole entry: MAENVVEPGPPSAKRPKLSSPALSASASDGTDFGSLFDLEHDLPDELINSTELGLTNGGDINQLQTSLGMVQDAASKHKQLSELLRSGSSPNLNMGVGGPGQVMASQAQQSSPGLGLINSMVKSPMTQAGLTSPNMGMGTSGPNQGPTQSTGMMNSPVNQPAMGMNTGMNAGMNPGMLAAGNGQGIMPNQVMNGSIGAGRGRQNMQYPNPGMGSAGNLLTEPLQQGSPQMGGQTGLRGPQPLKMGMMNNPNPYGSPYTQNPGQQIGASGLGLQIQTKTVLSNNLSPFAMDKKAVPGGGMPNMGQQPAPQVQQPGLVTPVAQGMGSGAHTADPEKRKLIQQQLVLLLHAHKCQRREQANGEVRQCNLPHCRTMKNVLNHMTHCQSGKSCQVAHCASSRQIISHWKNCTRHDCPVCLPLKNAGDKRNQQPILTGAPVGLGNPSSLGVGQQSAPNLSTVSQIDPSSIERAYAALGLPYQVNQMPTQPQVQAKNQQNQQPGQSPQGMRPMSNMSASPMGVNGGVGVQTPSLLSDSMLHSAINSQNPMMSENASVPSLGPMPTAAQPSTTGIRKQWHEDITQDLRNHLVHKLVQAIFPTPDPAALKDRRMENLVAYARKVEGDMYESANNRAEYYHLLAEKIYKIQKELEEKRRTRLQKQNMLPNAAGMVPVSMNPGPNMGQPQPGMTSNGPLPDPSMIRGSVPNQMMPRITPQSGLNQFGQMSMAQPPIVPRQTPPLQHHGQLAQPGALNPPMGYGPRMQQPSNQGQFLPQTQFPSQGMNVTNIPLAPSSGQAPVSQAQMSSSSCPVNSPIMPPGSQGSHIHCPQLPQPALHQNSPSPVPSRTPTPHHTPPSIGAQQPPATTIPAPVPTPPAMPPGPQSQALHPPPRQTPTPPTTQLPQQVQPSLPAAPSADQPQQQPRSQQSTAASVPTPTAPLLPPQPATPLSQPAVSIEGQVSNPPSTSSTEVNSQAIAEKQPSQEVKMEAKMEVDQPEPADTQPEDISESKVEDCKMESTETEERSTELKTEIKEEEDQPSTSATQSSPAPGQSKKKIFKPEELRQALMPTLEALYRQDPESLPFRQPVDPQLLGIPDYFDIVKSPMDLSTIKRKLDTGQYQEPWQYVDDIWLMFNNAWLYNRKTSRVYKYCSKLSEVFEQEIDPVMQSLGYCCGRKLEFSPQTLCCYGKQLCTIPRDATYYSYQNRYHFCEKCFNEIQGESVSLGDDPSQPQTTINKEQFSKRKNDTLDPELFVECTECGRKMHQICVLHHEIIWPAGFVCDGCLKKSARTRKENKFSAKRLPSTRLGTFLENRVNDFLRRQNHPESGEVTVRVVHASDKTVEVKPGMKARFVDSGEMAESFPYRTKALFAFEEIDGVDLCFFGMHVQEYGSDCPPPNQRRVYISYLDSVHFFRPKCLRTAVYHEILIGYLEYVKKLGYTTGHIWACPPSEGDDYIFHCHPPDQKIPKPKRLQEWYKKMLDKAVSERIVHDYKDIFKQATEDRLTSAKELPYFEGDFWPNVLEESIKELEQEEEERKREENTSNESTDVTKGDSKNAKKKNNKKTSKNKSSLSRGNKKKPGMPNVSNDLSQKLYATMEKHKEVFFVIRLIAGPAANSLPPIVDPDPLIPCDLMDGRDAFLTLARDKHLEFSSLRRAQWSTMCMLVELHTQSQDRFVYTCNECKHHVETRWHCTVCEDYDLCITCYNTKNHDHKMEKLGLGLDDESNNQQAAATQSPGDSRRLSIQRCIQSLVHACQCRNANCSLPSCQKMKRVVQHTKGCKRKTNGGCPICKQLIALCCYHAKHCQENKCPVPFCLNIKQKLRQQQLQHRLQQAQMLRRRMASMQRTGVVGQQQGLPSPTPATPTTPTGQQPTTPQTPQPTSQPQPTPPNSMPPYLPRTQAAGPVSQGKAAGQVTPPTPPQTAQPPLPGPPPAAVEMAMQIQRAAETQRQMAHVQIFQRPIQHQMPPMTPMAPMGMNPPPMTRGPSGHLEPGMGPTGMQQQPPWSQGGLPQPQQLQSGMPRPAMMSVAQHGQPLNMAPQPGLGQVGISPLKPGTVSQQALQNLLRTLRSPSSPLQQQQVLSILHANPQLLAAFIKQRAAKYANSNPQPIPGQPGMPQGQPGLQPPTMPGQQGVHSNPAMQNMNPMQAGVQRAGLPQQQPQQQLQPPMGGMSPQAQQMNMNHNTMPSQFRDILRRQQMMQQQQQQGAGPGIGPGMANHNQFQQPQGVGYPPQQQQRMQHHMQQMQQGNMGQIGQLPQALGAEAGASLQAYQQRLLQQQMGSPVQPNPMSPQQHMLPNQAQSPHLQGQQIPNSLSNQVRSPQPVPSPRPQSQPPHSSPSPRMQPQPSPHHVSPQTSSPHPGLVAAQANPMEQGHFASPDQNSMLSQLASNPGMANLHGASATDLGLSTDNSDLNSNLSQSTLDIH

Biological target: HAT p300 (histone acetyltransferase p300) (Homo sapiens, UniProt Q09472)
Assay: HAT activity kit assay (Biovision K332), inhibition of HAT activity of p300
Conditions: read-out: IC50 (μM), inhibition of HAT activity; secondary screening; tested at 0.5, 1, 10 and 100 μM
Protocol: Candidates 1 to 67, which are HAT inhibitors manufactured based on the PCAF structure, and HAT-24, HAT-26, and HAT-28 were diluted to 100 μM, and the degree of inhibition of HAT activity of p300 (inhibitory activity) was then determined using a kit for measuring HAT activity (Biovision, Cat No. K332, U.S.A) according to the method provided by the manufacturer. Here, the tissue was treated with C646 (HAT inhibitor) as a positive control.
Candidates 1 to 14 having a good HAT activity inhibitory effect in Section were diluted to concentrations of 0.5 μM, 1 μM, 10 μM, and 100 μM. Thereafter, the degree of inhibition of HAT activity was determined in the same manner as in Section.
Synthesis Examples 1 to 19 were diluted to 100 μM, and the degree of inhibition of HAT p300 activity was then determined in the same manner as in Section. Here, the tissues were treated with C646 and Candidate 12 (HAT-12) as the control, instead of Synthesis Examples 1 to 19.

| Structure (SMILES) | IC50 [µM] |
| --- | --- |
| COc1cc(/C=N/CCc2cccs2)cc(Cl)c1OCc1cccc(Cl)c1 | 13.1 |
| COc1cc(/C=N/CCN2CCCCC2)cc(Cl)c1OCc1cccc(C#N)c1 | 10.1 |
| COc1cc(C/C=N/CCc2ccccn2)cc(Cl)c1OCc1cccc(Cl)c1 | 41.7 |
| COc1cc(/C=N/CCN2CCCCC2)cc(Br)c1OCc1cccc(C#N)c1 | 27.7 |
| COc1cc(/C=N/CCN2CCCCC2)cc(I)c1OCc1cccc(Cl)c1 | 44.1 |

Continued by falling IC50, values first:

| IC50 [µM] | Structure (SMILES) |
| --- | --- |
| 35.5 | COc1cc(/C=N/CCN2CCCCC2)cc(I)c1OCc1cccc(C#N)c1 |
| 32.8 | COc1cc(/C=N/CCc2ccccn2)ccc1OCc1cccc(Cl)c1 |
| 32.4 | CCOC(=O)c1cccc(COc2c(I)cc(/C=N/CCN3CCCCC3)cc2OC)c1 |
| 12.1 | CCOC(=O)c1cccc(COc2c(Br)cc(/C=N/CCN3CCCCC3)cc2OC)c1 |
